Measurements as given in ChEMBL document CHEMBL5352499, “Differentiating Inhibition Selectivity and Binding Affinity of Isocitrate Dehydrogenase 1 Variant Inhibitors” (J Med Chem, 2023).
Calls of active or inactive are those of the source. The rule behind the calls is not given here.

Protein sequences, listed by entry. Tags and fused reporters are not part of them.
UniProt O75874, whole entry: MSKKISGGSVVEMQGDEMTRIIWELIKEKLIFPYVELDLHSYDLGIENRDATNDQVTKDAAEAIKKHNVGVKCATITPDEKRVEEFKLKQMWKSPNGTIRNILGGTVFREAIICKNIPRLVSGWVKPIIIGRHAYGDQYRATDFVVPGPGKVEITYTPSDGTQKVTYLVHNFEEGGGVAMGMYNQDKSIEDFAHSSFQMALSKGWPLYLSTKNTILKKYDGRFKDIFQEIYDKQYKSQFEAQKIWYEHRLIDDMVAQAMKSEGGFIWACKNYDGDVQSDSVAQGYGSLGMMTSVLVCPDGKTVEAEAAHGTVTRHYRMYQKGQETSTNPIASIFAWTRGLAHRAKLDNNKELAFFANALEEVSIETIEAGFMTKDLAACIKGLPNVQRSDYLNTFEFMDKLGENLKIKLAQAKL
UniProt O75874, whole entry R132H: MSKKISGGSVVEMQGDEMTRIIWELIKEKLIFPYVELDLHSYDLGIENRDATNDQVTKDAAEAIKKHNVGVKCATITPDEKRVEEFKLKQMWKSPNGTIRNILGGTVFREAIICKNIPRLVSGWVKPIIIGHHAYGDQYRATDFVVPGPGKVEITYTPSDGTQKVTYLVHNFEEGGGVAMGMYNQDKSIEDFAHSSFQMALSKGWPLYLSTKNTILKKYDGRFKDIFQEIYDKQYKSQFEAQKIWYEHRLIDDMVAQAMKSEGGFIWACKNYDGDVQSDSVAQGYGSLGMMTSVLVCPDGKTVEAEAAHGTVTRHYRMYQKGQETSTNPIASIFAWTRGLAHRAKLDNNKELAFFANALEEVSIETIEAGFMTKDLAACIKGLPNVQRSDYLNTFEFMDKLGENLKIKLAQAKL

Key:
[1] = target: T1, Isocitrate dehydrogenase [NADP] cytoplasmic (Homo sapiens, UniProt O75874); assay: Binding affinity to recombinant IDH1 (unknown origin) expressed in Escherichia coli BL21(DE3) pLysS cells incubated in presence of MgCl2 by ITC assay
Outline: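 Homodimeric wt IDH1 in 50 mM tris–HCl, pH 7.5; cell 40 μM protein (4% v/v DMSO), titrant 200 or 400 μM compound (2% or 4% DMSO). 25 °C, stirring 750 rpm, 19 injections (0.4 μL then 18 × 2.0 μL, 150 s apart); thermodynamic parameters fitted from the heats.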

[2] = system: Isocitrate dehydrogenase [NADP] cytoplasmic (Homo sapiens), O75874 [R132H]; assay: Binding affinity to recombinant IDH1 R132H mutant (unknown origin) expressed in Escherichia coli BL21(DE3) pLysS cells incubated in presence of MgCl2 by NMR analysis
[3] = target: T1, Isocitrate dehydrogenase [NADP] cytoplasmic; assay: Binding affinity to recombinant wildtype IDH1 (unknown origin) expressed in Escherichia coli BL21(DE3) pLysS cells incubated in presence of MgCl2 by NMR analysis
[4] = system: Isocitrate dehydrogenase [NADP] cytoplasmic (Homo sapiens), O75874 [R132H]; assay: Binding affinity to recombinant IDH1 R132H mutant (unknown origin) expressed in Escherichia coli BL21(DE3) pLysS cells incubated in presence of MgCl2 by ITC assay
Outline: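 IDH1 R132H homodimer in 50 mM tris–HCl, pH 7.5; 40 μM protein in cell (4% v/v DMSO) titrated at 25 °C with 200 or 400 μM compound (2% or 4% DMSO), 19 injections (0.4 μL, then 2.0 μL × 18, 150 s spacing), 750 rpm; thermodynamic parameters from fitted isotherm.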

Activity [1]: Active
Activity [2]: Active
Activity [3]: Active
Activity [4]: Active
SMILES: Cc1ccccc1C(C(=O)NC1CCCCC1)N(C(=O)Cn1ccnc1C)c1cccc(F)c1 (centres undefined)
